Test results from patent publication US10906905B2, “Five-membered heteroaryl ring bridged ring derivative, preparation method therefor and medical use thereof” (Jiangsu Hengrui Medicine Co., Ltd., priority 2016, dated 2021).

Test system: Smad signaling pathway of TGFβRI
Assay: Inhibition of Smad signaling pathway of TGFβRI (3TP-lux luciferase reporter in HepG2 cell)
Assay type: cell-based
Settings: Homo sapiens, HepG2, 18 h, read-out: IC50 on the inhibition of Smad signaling pathway of TGFβRI
Procedure: The inhibition effect of the compounds of the present invention on Smad signaling pathway of TGFβRI was determined by the following in vitro test.
The inhibition effect of the compounds of the present invention on Smad signaling pathway of TGFβRI was determined by the following experimental method:
On a 96-well plate, 100 μL of HepG2 cell (TCHu 72, Cell Bank of Typical Culture Collection Committee of Chinese Academy of Sciences) was seeded on an EMEM medium containing 10% FBS (42360-099, Gibco) in each well. The seeding density is 2.5×10^4 cells/well. The cells were incubated overnight at 37° C., 5% CO2. Each well was replaced with fresh EMEM medium containing 10% FBS. 0.1 g of 3TP-lux plasmid (11767, Biovector Science Lab, Inc.) was transfected in each well. The cells were further incubated for 24 hours at 37° C., 5% CO2. Each well was replaced with 90 μL of EMEM medium containing 0.5% FBS, then the cells were starved for 6 hours. The compounds were formulated as a 20 mM stock solution, which was diluted in gradient to a 400× concentration with 100% DMSO, and further 40-fold diluted with EMEM containing 0.5% FBS. […] The chemiluminescence signal values were measured with a Victor 3.0 (PerkinElmer). The IC50 values of the compounds were calculated using Graphpad Prism software based on each concentration of the compound and the corresponding signal value thereof.

Question: `Cc1cccc(-c2nc3n(c2-c2ccnc(-c4ccc(C(=O)NC5CCOCC5)cc4)c2)C2CCC3C2)n1` (stereo not shown) [Example 17, 4-(4-(2-(6-Methylpyridin-2-yl)-5,6,7,8-tetrahydro-5,8-methanoimidazo[1,2-a]pyridin-3-yl)pyridin-2-yl)-N-(tetrahydro-2H-pyran-4-yl)benzamide] was tested. Which IC50 did it give?
Answer: 96 nM
